Measurements taken from patent US8404646B2, “Methods for preventing or treating mitochondrial permeability transition” (Cornell Research Foundation, Inc., priority 2003, dated 2013).

Chains of the proteins cited; added tags and fusions are not shown.
UniProt P35372, whole entry, species assumed: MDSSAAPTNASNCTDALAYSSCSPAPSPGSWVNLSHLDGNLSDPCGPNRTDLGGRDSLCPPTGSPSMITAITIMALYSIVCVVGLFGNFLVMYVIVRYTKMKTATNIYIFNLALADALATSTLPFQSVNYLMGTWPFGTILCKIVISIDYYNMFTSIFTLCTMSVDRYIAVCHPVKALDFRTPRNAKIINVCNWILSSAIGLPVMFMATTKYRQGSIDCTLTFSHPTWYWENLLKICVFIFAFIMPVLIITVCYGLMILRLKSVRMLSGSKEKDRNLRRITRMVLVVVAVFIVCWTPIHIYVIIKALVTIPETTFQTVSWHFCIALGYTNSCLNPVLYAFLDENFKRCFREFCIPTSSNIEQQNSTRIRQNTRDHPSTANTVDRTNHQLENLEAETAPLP

Tests used:
Caco-2 = assay: Cellular uptake of [3H][Dmt1]DALDA into cell monolayers; assay type: cell-based, human; settings: estimated
Description: The cellular uptake of [^3H][Dmt^1]DALDA was studied using a human intestinal epithelial cell line (Caco-2), and confirmed with SH-SY5Y (human neuroblastoma cell), HEK293 (human embryonic kidney cell) and CRFK cells (kidney epithelial cell). Monolayers of cells were grown on 12-well plates (5×10^5 cells/well) coated with collagen for 3 days. On day 4, cells were washed twice with pre-wanned HBSS, and then incubated with 0.2 ml of HBSS containing either 250 nM [^3H][Dmt^1]DALDA at 37° C. or 4° C. for various times up to 1 h.
In a separate experiment, cells were incubated with a range of [Dmt^1]DALDA concentrations (1 μM-3 mM) for 1 h at 37° C. At the end of the incubation period, cells were washed 4 times with HBSS, and 0.2 ml of 0.1N NaOH with 1% SDS was added to each well. The cell contents were then transferred to scintillation vials and radioactivity counted. To distinguish between internalized radioactivity from surface-associated radioactivity, an acid-wash step was included. Prior to cell lysis, cells were incubated with 0.2 ml of 0.2 M acetic acid/0.05 M NaCl for 5 min on ice.

[1] = test system: isolated mouse liver mitochondria; assay: Uptake into isolated mitochondria (fluorescence quenching, radioactivity in pellet); assay type: in vitro ADME; settings: 5-30 min at 37° C.; assuming matrix volume 0.7 μl/mg protein
Description: FIG. 1: Cellular internalization and accumulation of [Dmt^1]DALDA (SS-02) in mitochondria. (FIG. 1A) Mitochondrial uptake of SS-19 was determined using fluorescence spectrophotometry (ex/em=320/420 nm). […] Pretreatment of mitochondria with FCCP (1.5 μM) reduced quenching by <20% (black line). (FIG. 1B) Isolated mitochondria were incubated with [^3H]SS-02 at 37° C. for 2 min. Uptake was stopped by centrifugation (16000×g) for 5 min at 4° C., and radioactivity determined in the pellet. Pretreatment of mitochondria with FCCP inhibited [^3H]SS-02 uptake by ˜20%. Data are shown as mean±s.e.; n=3. *, P<0.05 by Student's t-test. […] Black line, TMRM; red line, SS-19. […]
The pellet was resuspended in liver homogenate medium and the homogenization repeated twice. […] Protein concentration in the mitochondrial preparation was determined by the Bradford procedure.
Approximately 1.5 mg mitochondria in 400 μl buffer was incubated with [^3H][Dmt^1]DALDA for 5-30 min at 37° C. The mitochondria were then centrifuged down and the amount of radioactivity determined in the mitochondrial fraction and buffer fraction. […]
To confirm that the mitochondrial targeting was not an artifact of the fluorophore, we also examined mitochondrial uptake of [^3H][Dmt^1]DALDA. Isolated mitochondria were incubated with [^3H][Dmt^1]DALDA and radioactivity determined in the mitochondrial pellet and supernatant. […]

[2] = test system: isolated mouse liver mitochondria; assay: Mitochondrial respiration (oxygen consumption); assay type: biochemical; settings: 100 μM
mu-opioid receptor = mu-opioid receptor (Homo sapiens, UniProt P35372); settings: cited from earlier work

Substance: 2′,6′-dimethyltyrosine-D-Arg-Phe-Lys-NH2 [SS-02]
- intracellular concentration relative to extracellular concentration (Caco-2): approximately 50 times
- concentration in mitochondria relative to buffer [1]: 200 times
- respiratory ratio (state 3/state 4) [2]: 6.2 versus 6.0
- mu-opioid receptor agonist activity (mu-opioid receptor): potent mu-opioid receptor agonist
